The values that follow come from US11589575B2, “Injectable preserving medium for preserving cells from placental blood, from bone marrow and from peripheral blood” (ETABLISSEMENT FRANCAIS DU SANG, priority 2015, dated 2023).

For data set [1], the system named is placental blood CD34+ cells amplified ex vivo. Particulars: periods longer than 6 hours; cited from earlier work.
The nature of data set [2]: Stability of the preserving medium (pH, ageing). The format is physicochemical. The note with it: accelerated ageing conditions at 37° C. The source says:
Human albumin is commercially available in injectable quality, in particular from Baxter or under the trade names Albunorm®, Flexbumin®, Vialebex® or Ydralbum®. The solution comprises at least 1 g/l of albumin, preferably at least 5, 10 or 15 g/l. The amount of human albumin in the solution may be between 1 and 100 g/l of solution, preferably between 5 and 40 g/l of solution, more preferably between 5 and 20 g/l, and further preferably 15 g/l of solution. In other words, the solution comprises 0.1 to 10% of human albumin, preferably 0.5 to 4%, more preferably 0.5 to 2%, and further preferably 1.5%.
Finally, the components of 12 pharmaceutical preparations were included in the formulation of the cell preserving biological medium. […] These pouches are used in the pharmaceutical industry to package injectable preparations, and by suppliers of biological reagents for the preservation inter alia of culture media.

Consider “4% solution of human albumin: 4% solution of human albumin used to resuspend cells for injection”, for which the “functionality of the progenitors and of HSCs” value in data set [1] is on record as “major loss of functionality”. Take “Product C1: Human albumin 20% solution (human albumin 200 g, caprylic acid, qs 1 litre)”: in data set [2], the stabilising the medium result is on record as “major role in stabilising the medium”.
